Assay results: paper PMC3802530
Like-named read-outs stand apart in the source and are kept apart here.

Sequences of proteins named here, by UniProt entry; tags and fusion partners are left off. Residues count along the entry.
UniProt P54725, 315-361: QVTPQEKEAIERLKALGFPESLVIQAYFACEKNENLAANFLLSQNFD

Assays:
[1] = target: hHR23A UBA2 UBA2 (Homo sapiens) (UniProt P54725); assay: NMR
[2] = target: hHR23A UBA2 UBA2 (Homo sapiens) (UniProt P54725); details: cited from earlier work
[3] = target: hHR23A UBA2 UBA2 (Homo sapiens) (UniProt P54725); details: cited from earlier work; remark: listed apart in the source

Kd [1] [µM]	Substance	also measured
197	K11-Ub2 proximal Ub (from UniProt P0CG47)	–
–	K48-Ub2 (from UniProt P0CG47)	Kd [2]: 18 µM
155	K11-Ub2 distal Ub (from UniProt P0CG47)	–
–	K63-Ub2 (from UniProt P0CG47)	Kd [3]: > 200 µM
